Reference: patent US9643930B2, “Substituted indazole derivatives as in vitro MAO-B inhibitors” (“NTZ LAB” LTD., priority 2013, dated 2017)

Chains of the proteins cited; added tags and fusions are not shown.
UniProt P27338, whole entry: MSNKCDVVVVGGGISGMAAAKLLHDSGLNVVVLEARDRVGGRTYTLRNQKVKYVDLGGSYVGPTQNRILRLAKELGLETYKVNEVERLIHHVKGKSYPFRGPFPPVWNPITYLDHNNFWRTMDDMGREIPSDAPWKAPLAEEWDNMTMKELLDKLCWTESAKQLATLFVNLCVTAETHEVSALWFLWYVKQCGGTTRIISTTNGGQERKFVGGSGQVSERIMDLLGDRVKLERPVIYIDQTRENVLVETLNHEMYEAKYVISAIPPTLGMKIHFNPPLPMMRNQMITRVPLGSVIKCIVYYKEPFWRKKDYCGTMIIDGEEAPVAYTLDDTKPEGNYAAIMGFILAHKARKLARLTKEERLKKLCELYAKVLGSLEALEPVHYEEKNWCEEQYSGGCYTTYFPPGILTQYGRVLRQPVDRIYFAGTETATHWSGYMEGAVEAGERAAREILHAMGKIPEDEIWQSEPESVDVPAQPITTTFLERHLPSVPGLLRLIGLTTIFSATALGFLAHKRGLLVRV
UniProt P21397, whole entry: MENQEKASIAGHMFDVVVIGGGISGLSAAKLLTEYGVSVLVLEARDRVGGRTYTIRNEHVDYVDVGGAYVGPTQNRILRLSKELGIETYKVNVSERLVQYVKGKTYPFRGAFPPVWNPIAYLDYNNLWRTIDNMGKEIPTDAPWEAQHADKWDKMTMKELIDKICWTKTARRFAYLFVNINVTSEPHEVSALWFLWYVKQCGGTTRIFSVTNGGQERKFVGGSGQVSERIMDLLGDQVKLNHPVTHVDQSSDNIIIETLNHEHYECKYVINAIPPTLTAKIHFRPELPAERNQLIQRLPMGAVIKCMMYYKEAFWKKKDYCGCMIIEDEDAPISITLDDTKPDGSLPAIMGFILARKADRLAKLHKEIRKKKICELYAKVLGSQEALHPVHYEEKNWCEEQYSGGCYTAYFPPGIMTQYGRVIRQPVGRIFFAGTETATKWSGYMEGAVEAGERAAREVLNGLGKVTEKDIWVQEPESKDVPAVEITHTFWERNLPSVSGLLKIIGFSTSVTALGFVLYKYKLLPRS

What was measured:
human MAO-B = human MAO-B (Homo sapiens, UniProt P27338); test: Human MAO-B assay (recombinant enzyme, Amplex Red fluorescence); format: biochemical; set-up: purchased Sigma-Aldrich M7441; host or cells: baculovirus-infected insect cells (microsomal product); settings: FIG. 4, read-out: estimated IC50 value at human MAO-B (unit inferred)
human MAO-A = human MAO-A (Homo sapiens, UniProt P21397); test: Human MAO-A assay (recombinant enzyme, Amplex Red fluorescence)

SMILES: Cn1ncc2cc(C(=O)Nc3ccc(Cl)c(Cl)c3)ccc21 [Example 13]
- IC50 (human MAO-B): 0.386 ± 0.052 nM
- IC50 (human MAO-A): > 10000 nM
